# CycPeptMPDB entries from one study

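Conditions beyond the assay type are not listed; see the original paper. The list need not hold all peptides of the study. Peptides that the database sets to -10, its floor, are left out.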

PAMPA measures passive passage through an artificial lipid membrane. Permeability is in 10^-6 cm/s, converted from the database's log10 values; higher is more permeable.

The entry for CC(=O)N1CCC[C@@H]1C(=O)N(C)[C@@H](CC(C)C)C(=O)N[C@@H]1C(=O)N(C)[C@H](CC(C)C)C(=O)N(C)[C@H](CC(C)C)C(=O)N[C@H](CC(C)C)C(=O)N(C)[C@@H](C)C(=O)N[C@@H](CC(C)C)C(=O)N2CCC[C@@H]2C(=O)O[C@@H]1C lists PAMPA 4.8 × 10^-6 cm/s.
The entry for CC(=O)N1CCC[C@@H]1C(=O)N(C)[C@H](CC(C)C)C(=O)N[C@@H]1C(=O)N[C@@H](CC(C)C)C(=O)N[C@H](CC(C)C)C(=O)N(C)[C@H](CC(C)C)C(=O)N(C)[C@H](C)C(=O)N[C@@H](CC(C)C)C(=O)N2CCC[C@@H]2C(=O)O[C@@H]1C lists PAMPA 0.087 × 10^-6 cm/s.
The entry for CC(=O)N1CCC[C@H]1C(=O)N(C)[C@H](CC(C)C)C(=O)N[C@@H]1C(=O)N[C@@H](CC(C)C)C(=O)N(C)[C@@H](CC(C)C)C(=O)N(C)[C@H](CC(C)C)C(=O)N(C)[C@H](C)C(=O)N[C@H](CC(C)C)C(=O)N2CCC[C@H]2C(=O)O[C@@H]1C lists PAMPA 1.6 × 10^-6 cm/s.
The entry for CC(=O)N1CCC[C@@H]1C(=O)N(C)[C@H](CC(C)C)C(=O)N[C@@H]1C(=O)N(C)[C@@H](CC(C)C)C(=O)N[C@H](CC(C)C)C(=O)N(C)[C@@H](CC(C)C)C(=O)N[C@@H](C)C(=O)N[C@@H](CC(C)C)C(=O)N2CCC[C@@H]2C(=O)O[C@@H]1C lists PAMPA 0.1 × 10^-6 cm/s.
The entry for CC(=O)N1CCC[C@@H]1C(=O)N(C)[C@@H](CC(C)C)C(=O)N[C@@H]1C(=O)N[C@@H](CC(C)C)C(=O)N(C)[C@@H](CC(C)C)C(=O)N[C@H](CC(C)C)C(=O)N(C)[C@@H](C)C(=O)N[C@H](CC(C)C)C(=O)N2CCC[C@@H]2C(=O)O[C@@H]1C lists PAMPA 5.5 × 10^-6 cm/s.
The entry for CC(=O)N1CCC[C@H]1C(=O)N(C)[C@H](CC(C)C)C(=O)N[C@@H]1C(=O)N[C@H](CC(C)C)C(=O)N[C@@H](CC(C)C)C(=O)N[C@@H](CC(C)C)C(=O)N(C)[C@@H](C)C(=O)N[C@@H](CC(C)C)C(=O)N2CCC[C@@H]2C(=O)O[C@@H]1C lists PAMPA 3.6 × 10^-6 cm/s.
The entry for CC(=O)N1CCC[C@H]1C(=O)N[C@@H]1C(=O)N(C)[C@H](CC(C)C)C(=O)N(C)[C@H](CC(C)C)C(=O)N(C)[C@@H](CC(C)C)C(=O)N(C)[C@H](CC(C)C)C(=O)N(C)[C@H](C)C(=O)N[C@@H](CC(C)C)C(=O)N2CCC[C@@H]2C(=O)O[C@@H]1C lists PAMPA 8.9 × 10^-6 cm/s.
The entry for CC(=O)N[C@@H]1C(=O)N2CCC[C@H]2C(=O)N(C)[C@H](CC(C)C)C(=O)N[C@@H](CC(C)C)C(=O)N[C@H](CC(C)C)C(=O)N[C@H](CC(C)C)C(=O)N(C)[C@@H](C)C(=O)N[C@@H](CC(C)C)C(=O)N2CCC[C@@H]2C(=O)O[C@@H]1C lists PAMPA 0.36 × 10^-6 cm/s.
The entry for CC(=O)N1CCC[C@H]1C(=O)N(C)[C@@H](CC(C)C)C(=O)N[C@@H]1C(=O)N(C)[C@@H](CC(C)C)C(=O)N(C)[C@@H](CC(C)C)C(=O)N(C)[C@H](CC(C)C)C(=O)N(C)[C@H](C)C(=O)N[C@H](CC(C)C)C(=O)N2CCC[C@@H]2C(=O)O[C@@H]1C lists PAMPA 2.8 × 10^-6 cm/s.
The entry for CC(=O)N1CCC[C@@H]1C(=O)N(C)[C@H](CC(C)C)C(=O)N[C@@H]1C(=O)N(C)[C@@H](CC(C)C)C(=O)N(C)[C@@H](CC(C)C)C(=O)N[C@H](CC(C)C)C(=O)N(C)[C@@H](C)C(=O)N[C@H](CC(C)C)C(=O)N2CCC[C@@H]2C(=O)O[C@@H]1C lists PAMPA 2.3 × 10^-6 cm/s.
The entry for CC(=O)N[C@@H]1C(=O)N2CCC[C@H]2C(=O)N(C)[C@H](CC(C)C)C(=O)N[C@H](CC(C)C)C(=O)N[C@H](CC(C)C)C(=O)N(C)[C@H](CC(C)C)C(=O)N(C)[C@H](C)C(=O)N[C@@H](CC(C)C)C(=O)N2CCC[C@@H]2C(=O)O[C@@H]1C lists PAMPA 0.81 × 10^-6 cm/s.
The entry for CC(=O)N1CCC[C@@H]1C(=O)N(C)[C@H](CC(C)C)C(=O)N[C@@H]1C(=O)N(C)[C@@H](CC(C)C)C(=O)N[C@@H](CC(C)C)C(=O)N(C)[C@@H](CC(C)C)C(=O)N(C)[C@@H](C)C(=O)N[C@H](CC(C)C)C(=O)N2CCC[C@@H]2C(=O)O[C@@H]1C lists PAMPA 1.2 × 10^-6 cm/s.
The entry for CC(=O)N1CCC[C@H]1C(=O)N(C)[C@H](CC(C)C)C(=O)N[C@@H]1C(=O)N(C)[C@@H](CC(C)C)C(=O)N(C)[C@H](CC(C)C)C(=O)N[C@H](CC(C)C)C(=O)N(C)[C@H](C)C(=O)N[C@@H](CC(C)C)C(=O)N2CCC[C@H]2C(=O)O[C@@H]1C lists PAMPA 6 × 10^-6 cm/s.
The entry for CC(=O)N1CCC[C@H]1C(=O)N(C)[C@H](CC(C)C)C(=O)N[C@@H]1C(=O)N[C@H](CC(C)C)C(=O)N[C@H](CC(C)C)C(=O)N(C)[C@@H](CC(C)C)C(=O)N(C)[C@@H](C)C(=O)N[C@@H](CC(C)C)C(=O)N2CCC[C@@H]2C(=O)O[C@@H]1C lists PAMPA 6.8 × 10^-6 cm/s.
The entry for CC(=O)N1CCC[C@H]1C(=O)N[C@@H]1C(=O)N[C@H](CC(C)C)C(=O)N(C)[C@H](CC(C)C)C(=O)N[C@@H](CC(C)C)C(=O)N(C)[C@H](CC(C)C)C(=O)N(C)[C@H](C)C(=O)N[C@@H](CC(C)C)C(=O)N2CCC[C@@H]2C(=O)O[C@@H]1C lists PAMPA 4.5 × 10^-6 cm/s.
The entry for CC(=O)N1CCC[C@@H]1C(=O)N(C)[C@@H](CC(C)C)C(=O)N[C@@H]1C(=O)N(C)[C@@H](CC(C)C)C(=O)N[C@@H](CC(C)C)C(=O)N[C@H](CC(C)C)C(=O)N[C@H](C)C(=O)N[C@H](CC(C)C)C(=O)N2CCC[C@H]2C(=O)O[C@@H]1C lists PAMPA 0.18 × 10^-6 cm/s.
The entry for CC(=O)N1CCC[C@@H]1C(=O)N(C)[C@H](CC(C)C)C(=O)N[C@@H]1C(=O)N(C)[C@H](CC(C)C)C(=O)N[C@H](CC(C)C)C(=O)N[C@H](CC(C)C)C(=O)N[C@H](C)C(=O)N[C@H](CC(C)C)C(=O)N2CCC[C@H]2C(=O)O[C@@H]1C lists PAMPA 0.18 × 10^-6 cm/s.
The entry for CC(=O)N1CCC[C@@H]1C(=O)N(C)[C@H](CC(C)C)C(=O)N[C@@H]1C(=O)N[C@H](CC(C)C)C(=O)N(C)[C@H](CC(C)C)C(=O)N[C@@H](CC(C)C)C(=O)N[C@@H](C)C(=O)N[C@H](CC(C)C)C(=O)N2CCC[C@H]2C(=O)O[C@@H]1C lists PAMPA 0.79 × 10^-6 cm/s.
The entry for CC(=O)N1CCC[C@H]1C(=O)N(C)[C@@H](CC(C)C)C(=O)N[C@@H]1C(=O)N(C)[C@@H](CC(C)C)C(=O)N(C)[C@H](CC(C)C)C(=O)N(C)[C@@H](CC(C)C)C(=O)N(C)[C@H](C)C(=O)N[C@H](CC(C)C)C(=O)N2CCC[C@H]2C(=O)O[C@@H]1C lists PAMPA 3.6 × 10^-6 cm/s.
The entry for CC(=O)N[C@@H]1C(=O)N2CCC[C@H]2C(=O)N(C)[C@H](CC(C)C)C(=O)N(C)[C@@H](CC(C)C)C(=O)N[C@H](CC(C)C)C(=O)N(C)[C@H](CC(C)C)C(=O)N[C@H](C)C(=O)N[C@@H](CC(C)C)C(=O)N2CCC[C@@H]2C(=O)O[C@@H]1C lists PAMPA 4.6 × 10^-6 cm/s.
The entry for CC(=O)N1CCC[C@H]1C(=O)N(C)[C@H](CC(C)C)C(=O)N[C@@H]1C(=O)N[C@H](CC(C)C)C(=O)N[C@@H](CC(C)C)C(=O)N[C@H](CC(C)C)C(=O)N(C)[C@H](C)C(=O)N[C@H](CC(C)C)C(=O)N2CCC[C@@H]2C(=O)O[C@@H]1C lists PAMPA 0.69 × 10^-6 cm/s.

Excerpt, the opening 3 entries:

Listed for CC(=O)N1CCC[C@@H]1C(=O)N(C)[C@@H](CC(C)C)C(=O)N[C@@H]1C(=O)N(C)[C@H](CC(C)C)C(=O)N(C)[C@H](CC(C)C)C(=O)N[C@H](CC(C)C)C(=O)N(C)[C@@H](C)C(=O)N[C@@H](CC(C)C)C(=O)N2CCC[C@@H]2C(=O)O[C@@H]1C: PAMPA 4.8 × 10^-6 cm/s.
Listed for CC(=O)N1CCC[C@@H]1C(=O)N(C)[C@H](CC(C)C)C(=O)N[C@@H]1C(=O)N[C@@H](CC(C)C)C(=O)N[C@H](CC(C)C)C(=O)N(C)[C@H](CC(C)C)C(=O)N(C)[C@H](C)C(=O)N[C@@H](CC(C)C)C(=O)N2CCC[C@@H]2C(=O)O[C@@H]1C: PAMPA 0.087 × 10^-6 cm/s.
Listed for CC(=O)N1CCC[C@H]1C(=O)N(C)[C@H](CC(C)C)C(=O)N[C@@H]1C(=O)N[C@@H](CC(C)C)C(=O)N(C)[C@@H](CC(C)C)C(=O)N(C)[C@H](CC(C)C)C(=O)N(C)[C@H](C)C(=O)N[C@H](CC(C)C)C(=O)N2CCC[C@H]2C(=O)O[C@@H]1C: PAMPA 1.6 × 10^-6 cm/s.

Data: CycPeptMPDB; original report Kelly et al. 2021, doi:10.1021/jacs.0c06115.